Data published in US12162867B2, “Inhibitors of RNA helicase DHX9 and uses thereof” (ACCENT THERAPEUTICS, INC., priority 2022, dated 2024).
Like-named read-outs stand apart in the source and are kept apart here.

Protein sequences, listed by entry. Tags and fused reporters are not part of them.
UniProt Q08211, whole entry: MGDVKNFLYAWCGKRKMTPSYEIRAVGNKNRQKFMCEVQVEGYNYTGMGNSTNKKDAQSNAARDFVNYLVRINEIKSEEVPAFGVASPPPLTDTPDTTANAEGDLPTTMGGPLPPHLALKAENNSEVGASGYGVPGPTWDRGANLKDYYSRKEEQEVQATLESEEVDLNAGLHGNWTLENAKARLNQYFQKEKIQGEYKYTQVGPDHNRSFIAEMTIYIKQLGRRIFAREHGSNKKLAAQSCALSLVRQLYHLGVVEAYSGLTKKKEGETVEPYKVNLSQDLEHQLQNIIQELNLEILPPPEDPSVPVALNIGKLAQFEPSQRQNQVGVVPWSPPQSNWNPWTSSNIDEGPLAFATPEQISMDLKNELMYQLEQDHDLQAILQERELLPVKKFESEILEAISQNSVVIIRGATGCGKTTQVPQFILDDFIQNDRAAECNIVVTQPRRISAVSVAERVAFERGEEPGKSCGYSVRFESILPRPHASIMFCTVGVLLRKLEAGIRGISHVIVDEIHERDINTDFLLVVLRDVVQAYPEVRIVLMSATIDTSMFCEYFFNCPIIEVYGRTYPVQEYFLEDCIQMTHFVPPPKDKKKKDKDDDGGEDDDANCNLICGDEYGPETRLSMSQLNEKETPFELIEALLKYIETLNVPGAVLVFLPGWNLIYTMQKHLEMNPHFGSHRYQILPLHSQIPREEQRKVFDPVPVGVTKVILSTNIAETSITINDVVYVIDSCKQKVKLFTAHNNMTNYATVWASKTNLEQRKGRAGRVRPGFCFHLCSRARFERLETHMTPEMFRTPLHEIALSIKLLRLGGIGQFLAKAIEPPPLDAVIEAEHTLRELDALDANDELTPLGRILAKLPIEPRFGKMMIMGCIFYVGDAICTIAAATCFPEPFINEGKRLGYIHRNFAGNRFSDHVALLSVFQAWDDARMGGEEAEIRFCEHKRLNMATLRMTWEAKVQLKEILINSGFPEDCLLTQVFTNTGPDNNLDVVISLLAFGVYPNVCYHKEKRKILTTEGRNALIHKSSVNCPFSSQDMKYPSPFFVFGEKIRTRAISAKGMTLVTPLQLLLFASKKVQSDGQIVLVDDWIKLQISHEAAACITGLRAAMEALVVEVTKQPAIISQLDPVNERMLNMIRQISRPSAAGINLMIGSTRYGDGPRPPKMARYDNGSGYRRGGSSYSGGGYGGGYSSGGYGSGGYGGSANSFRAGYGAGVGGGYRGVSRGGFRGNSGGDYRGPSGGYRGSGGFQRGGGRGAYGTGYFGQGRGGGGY

How the values were obtained:
[1] = molecular target: T1, Human recombinant DHX9 protein (Homo sapiens, UniProt Q08211); assay: DHX9 ATPase assay (ADP-Glo); type: biochemical
T1 construct: purchased Viva

LS411N cells = assay: DHX9 cellular proliferation assay (CellTiter-Glo), LS411N (CRC-MSI); type: cell-based; settings: Homo sapiens, LS-411N
Colo205 cells = assay: cells; settings: Homo sapiens, COLO 205, read-out: *Colo205 Anti-proliferation IC50 (μM)
HCT116 cells = assay: DHX9 cellular proliferation assay (CellTiter-Glo), HCT116; type: cell-based; settings: Homo sapiens, HCT-116; HCT116, CRC-MSI; assay performed at Accent Therapeutics, Inc.; read-out: *HCT116 Anti-proliferative IC50
[2] = system: circBRIP1 in HCT116 cells; assay: DHX9 circBRIP1 cellular target engagement SYBR Green assay (qPCR); type: cell-based; settings: Homo sapiens
NCI-H747 cells = assay: DHX9 cellular proliferation assay (CellTiter-Glo), NCI-H747 (CRC-MSS); type: cell-based; settings: Homo sapiens
[3] = system: circBRIP1 in HCT116 cells; assay: DHX9 circBRIP1 cellular target engagement TaqMan Multiplex assay (qPCR); type: cell-based; settings: Homo sapiens, HCT-116, read-out: DHX9 Cellular Target Engagement EC50 (μM)
[4] = LS411N, CRC-MSI-H, performed at Pharmaron, read-out: LS411N (CRC-MSI-H) Antiproliferative IC50
[5] = HCT-116, circBRIP1, HCT116 cells, SyBr assay (marked ^+), read-out: DHX9 Cellular Target Engagement EC50
[6] = HCT-116, read-out: DHX9 Cellular Target Engagement EC50
[7] = NCI-H747, NCI-H747, CRC-MSS, performed at Pharmaron, read-out: H747 (CRC-MSS) Antiproliferative IC50
[8] = read-out: LS411N (CRC-MSI-H) Antiproliferative IC50
[9] = NCI-H747, read-out: H747 (CRC-MSS) Antiproliferative IC50

CS(=O)(=O)Nc1cc(Cl)cc(NC(=O)c2cnn([C@H]3CC[C@H](O)CC3)c2)c1 (single isomer, unassigned) [Example 154]
DHX9 Biochemical Max Inhibition [1]: 58.9%

CS(=O)(=O)Nc1cc(Br)cc(NC(=O)c2cc(-c3ccccc3)cs2)c1 [Example 15, N-(3-bromo-5-(methylsulfonamido)phenyl)-4-phenylthiophene-2-carboxamide]
IC50 (LS411N cells; [4]): 0.663 µM | IC50 (LS411N cells; LS411N, CRC-MSI, assay performed at Accent Therapeutics, Inc., read-out: *LS411N Anti-proliferative Activity IC50): 2.57 µM | IC50 (Colo205 cells): 10.6 µM | IC50 (HCT116 cells): 1.03 µM

CS(=O)(=O)Nc1cc(Br)cc(NC(=O)c2cc(-c3ccccn3)cs2)c1 [Example 17, N-(3-bromo-5-(methylsulfonamido)phenyl)-4-(pyridin-2-yl)thiophene-2-carboxamide]
IC50 (Colo205 cells): 11.8 µM

CS(=O)(=O)Nc1cc(Cl)cc(NC(=O)c2cnn(-c3ncccc3OCc3cccnc3)c2)c1 [Example 61, N-(3-chloro-5-(methylsulfonamido)phenyl)-1-(3-(pyridin-3-ylmethoxy)pyridin-2-yl)-1H-pyrazole-4-carboxamide]
EC50 [2, 5]: 1.52 µM

CS(=O)(=O)Nc1cc(Cl)cc(NC(=O)c2cnn(-c3ncccc3OC(F)(F)c3ccccc3)c2)c1 [Example 97, N-(3-chloro-5-(methylsulfonamido)phenyl)-1-(3-(difluoro(phenyl)methoxy)pyridin-2-yl)-1H-pyrazole-4-carboxamide]
EC50 [2, 5]: 3.16 µM

CS(=O)(=O)Nc1cc(Cl)cc(NC(=O)c2cc(C#N)n(-c3ccccn3)c2)c1 [Example 98, N-(3-chloro-5-(methylsulfonamido)phenyl)-5-cyano-1-(pyridin-2-yl)-1H-pyrrole-3-carboxamide]
EC50 [2, 5]: 1.33 µM

CS(=O)(=O)Nc1cc(Cl)cc(NC(=O)c2cc(-c3ccccn3)ns2)c1 [Example 137, N-(3-chloro-5-(methylsulfonamido)phenyl)-3-(pyridin-2-yl)isothiazole-5-carboxamide]
EC50 [2, 6]: 3.01 µM

CS(=O)(=O)Nc1cc(Cl)cc(NC(=O)c2cnn([C@H]3CC[C@@H](O)CC3)c2)c1 [Example 151, N-(3-chloro-5-(methylsulfonamido)phenyl)-1-((1s,4s)-4-hydroxycyclohexyl)-1H-pyrazole-4-carboxamide]
DHX9 Biochemical Max Inhibition [1]: 58.9% | IC50 ([1]; inflection point of dose-response curve, read-out: DHX9 Biochemical Inflection Point): 0.179 µM

CS(=O)(=O)Nc1cc(Cl)cc(NC(=O)c2cccc(-n3ccc(CO)n3)c2)c1 [Example 160, N-(3-chloro-5-(methylsulfonamido)phenyl)-3-(3-(hydroxymethyl)-1H-pyrazol-1-yl)benzamide]
IC50 (LS411N cells; [4]): > 10 µM | IC50 (NCI-H747 cells; [7]): > 10 µM | EC50 [2, 5]: 6.94 µM

CS(=O)(=O)Nc1cc(Cl)cc(NC(=O)c2cc(C(=O)N3CCNCC3)n(-c3ccccn3)c2)c1 [Example 165, N-(3-chloro-5-(methylsulfonamido)phenyl)-5-(piperazine-1-carbonyl)-1-(pyridin-2-yl)-1H-pyrrole-3-carboxamide]
EC50 [2, 6]: > 10 µM

CS(=O)(=O)Nc1cc(Cl)cc(NC(=O)c2cc(CO)n(-c3ccccn3)c2)c1 [Example 169, N-(3-chloro-5-(methylsulfonamido)phenyl)-5-(hydroxymethyl)-1-(pyridin-2-yl)-1H-pyrrole-3-carboxamide]
IC50 (LS411N cells; [8]): 2.17 µM | IC50 (NCI-H747 cells; [9]): > 10 µM | EC50 [2, 6]: 0.189 µM

Cc1cc(C(=O)Nc2cc(Cl)cc(NS(C)(=O)=O)c2)cn1-c1ccccn1 [Example 170, N-(3-chloro-5-(methylsulfonamido)phenyl)-5-methyl-1-(pyridin-2-yl)-1H-pyrrole-3-carboxamide]
IC50 (LS411N cells; [8]): 0.122 µM | IC50 (NCI-H747 cells; [9]): > 10 µM | EC50 [2, 6]: 0.0447 µM

Cc1cc(C(=O)Nc2cc(Cl)cc(NS(C)(=O)=O)c2)cn1-c1ncccc1OCc1cncc(F)c1 [Example 175, N-(3-chloro-5-(methylsulfonamido)phenyl)-1-(3-((5-fluoropyridin-3-yl)methoxy)pyridin-2-yl)-5-methyl-1H-pyrrole-3-carboxamide]
IC50 (LS411N cells; [4]): 0.0863 µM | IC50 (NCI-H747 cells; [7]): > 10 µM | EC50 [2, 5]: 0.0445 µM

CS(=O)(=O)Nc1cc(Cl)cc(NC(=O)c2cc(N3CCCC3=O)cs2)c1 [Example 176, N-(3-chloro-5-(methylsulfonamido)phenyl)-4-(2-oxopyrrolidin-1-yl)thiophene-2-carboxamide]
EC50 [2, 5]: 0.408 µM

CC(C)N1CC(Oc2cnc(-c3cc(C(=O)Nc4cc(Cl)cc(NS(C)(=O)=O)c4)cn3C)c(F)c2)C1 [Example 634, N-(3-chloro-5-methanesulfonamidophenyl)-5-{3-fluoro-5-[(1-isopropylazetidin-3-yl)oxy]pyridin-2-yl}-1-methylpyrrole-3-carboxamide]
EC50 [3]: 0.0186 µM | IC50 (LS411N cells; [8]): 0.0247 µM | IC50 (NCI-H747 cells; [9]): 8.98 µM
